# Measured affinities in a library of Ab-14 heavy chain variants

Antigen: PDVDLGDISGINAS, a 14-residue peptide of the SARS-CoV-2 spike HR2 region.

Ab-14 is the parent antibody, in scFv form: VH, then a 15-residue (Gly4Ser)3 linker, then VL. The light chain is unchanged in all variants.
VH: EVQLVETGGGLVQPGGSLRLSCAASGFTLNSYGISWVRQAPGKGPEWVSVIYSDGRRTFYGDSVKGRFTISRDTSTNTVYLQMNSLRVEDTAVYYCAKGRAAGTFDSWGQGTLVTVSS
VL: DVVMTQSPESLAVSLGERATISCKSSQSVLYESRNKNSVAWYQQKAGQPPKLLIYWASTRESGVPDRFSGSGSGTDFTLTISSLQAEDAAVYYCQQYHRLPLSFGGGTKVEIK

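The starting antibody came from a phage panning campaign against this peptide. These sequences belong to a second round, designed from the earlier measurements on random variants of the parent. Their group label is 14H_GPLM_HC (GPLM: also part of the Gaussian process libraries; HC: hill climbing; a sequence that several methods proposed may carry one label only). AlphaSeq pools MATa yeast showing the antibodies with MATalpha yeast showing the peptide. Mating (16 h, 30 °C) was followed by selection of diploids and sequencing of their barcodes. A regression on co-assayed BCL2-family reference pairs converts the normalised counts of each replicate to an apparent Kd. There are six technical replicates.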

Changes read parent residue, position, new residue, counted from the first residue of the VH shown.
Affinities are written as log10 Kd with Kd in nM; a lower number is a better binder.
A mean of the replicates is given; it leaves out those without a signal.
"n.d." means that the variant was in the library but no mating with the target was seen in that replicate; the authors take this as a sign of poor binding, and no number exists.
Of ten entries with the parent sequence, four were seen in most replicates (averages 0.34 to 2.37), three in one and three in none, so single entries are noisy.
Nonspecific signal, from three strains lacking the peptide, appeared in 1% of pairings of all heavy chain designs, centred on 2.08 (5% of these signals below 0.84); values are not corrected for it. For each scFv, signals with the empty controls are counted beside the result, with their mean in brackets.
The authors averaged sequences with at least three values out of six and counted those with two or fewer as poor binders.
Values of this round are not directly comparable with the first-round values of the same sequences.

{"changes": "T28R S31E G61T A101F", "log10 Kd (nM) by replicate": "1.78 0.94 0.92 1.97 0.50 0.23", "log10 Kd (nM), mean": "1.06", "empty controls": "0/18"}
{"changes": "T28E S31E G61S", "log10 Kd (nM) by replicate": "-0.20 -0.41 -0.65 -0.08 -0.46 -0.33", "log10 Kd (nM), mean": "-0.36", "empty controls": "0/18"}
{"changes": "S31Q R56M G61S", "log10 Kd (nM) by replicate": "0.39 0.92 0.46 1.03 0.68 0.38", "log10 Kd (nM), mean": "0.64", "empty controls": "0/18"}
{"changes": "T28Q S31E A101E", "log10 Kd (nM) by replicate": "0.17 -0.29 -0.19 -0.31 -0.28 -0.33", "log10 Kd (nM), mean": "-0.20", "empty controls": "0/18"}
{"changes": "N30D D106H S107D", "log10 Kd (nM) by replicate": "n.d. n.d. n.d. n.d. n.d. n.d.", "log10 Kd (nM), mean": "n.d.", "empty controls": "0/18"}
{"changes": "G61T R100Q A101E", "log10 Kd (nM) by replicate": "0.16 0.11 -0.04 0.24 0.17 0.25", "log10 Kd (nM), mean": "0.15", "empty controls": "0/18"}
{"changes": "S31E G61T A101N", "log10 Kd (nM) by replicate": "-0.02 -0.55 -0.45 -0.37 -0.54 0.16", "log10 Kd (nM), mean": "-0.30", "empty controls": "0/18"}
{"changes": "N30D G103V S107Q", "log10 Kd (nM) by replicate": "n.d. n.d. n.d. n.d. n.d. n.d.", "log10 Kd (nM), mean": "n.d.", "empty controls": "0/18"}
{"changes": "S31Q G61A", "log10 Kd (nM) by replicate": "0.35 -0.08 -0.02 0.31 -0.13 0.12", "log10 Kd (nM), mean": "0.09", "empty controls": "0/18"}
{"changes": "G61S R100K A102G", "log10 Kd (nM) by replicate": "1.92 1.72 1.11 1.94 n.d. 0.62", "log10 Kd (nM), mean": "1.46", "empty controls": "0/18"}
{"changes": "F27Y S31D F59Q G61I", "log10 Kd (nM) by replicate": "n.d. n.d. n.d. n.d. n.d. n.d.", "log10 Kd (nM), mean": "n.d.", "empty controls": "1/18 (2.50)"}
{"changes": "T28V G61D R100Q A101L", "log10 Kd (nM) by replicate": "n.d. 1.41 n.d. 0.98 2.43 n.d.", "log10 Kd (nM), mean": "1.61", "empty controls": "0/18"}
{"changes": "S31E R56K G61S T104F", "log10 Kd (nM) by replicate": "0.09 -0.16 0.08 -0.21 -0.52 0.55", "log10 Kd (nM), mean": "-0.03", "empty controls": "0/18"}
{"changes": "N30E A101E", "log10 Kd (nM) by replicate": "-0.04 0.13 0.36 0.18 0.65 0.42", "log10 Kd (nM), mean": "0.28", "empty controls": "0/18"}
{"changes": "R100Q A101L S107R", "log10 Kd (nM) by replicate": "n.d. n.d. n.d. n.d. n.d. n.d.", "log10 Kd (nM), mean": "n.d.", "empty controls": "0/18"}
{"changes": "S31D S107V", "log10 Kd (nM) by replicate": "1.36 0.62 0.73 0.93 0.41 1.60", "log10 Kd (nM), mean": "0.94", "empty controls": "0/18"}
{"changes": "S31E F59A G61S", "log10 Kd (nM) by replicate": "1.95 0.75 0.99 0.91 0.83 1.08", "log10 Kd (nM), mean": "1.09", "empty controls": "1/18 (2.09)"}
{"changes": "N30E S31N D106I", "log10 Kd (nM) by replicate": "n.d. n.d. n.d. n.d. n.d. n.d.", "log10 Kd (nM), mean": "n.d.", "empty controls": "0/18"}
{"changes": "T28D T104F D106M", "log10 Kd (nM) by replicate": "n.d. n.d. n.d. n.d. n.d. n.d.", "log10 Kd (nM), mean": "n.d.", "empty controls": "0/18"}
{"changes": "S31D F59Q G61I A101S", "log10 Kd (nM) by replicate": "0.85 0.55 1.17 0.80 1.44 0.69", "log10 Kd (nM), mean": "0.92", "empty controls": "0/18"}

Picked from the list: the 2 lowest averages where every replicate gave a value.

{"changes": "T28E S31E G61S", "log10 Kd (nM) by replicate": "-0.20 -0.41 -0.65 -0.08 -0.46 -0.33", "log10 Kd (nM), mean": "-0.36", "empty controls": "0/18"}
{"changes": "S31E G61T A101N", "log10 Kd (nM) by replicate": "-0.02 -0.55 -0.45 -0.37 -0.54 0.16", "log10 Kd (nM), mean": "-0.30", "empty controls": "0/18"}

Source: Li et al. 2023 (doi:10.1038/s41467-023-39022-2), MIT Lincoln Laboratory and A-Alpha Bio; data file from the FLAb repository.